# Test results taken from ChEMBL document CHEMBL4007391, “Tackling Fungal Resistance by Biofilm Inhibitors” (J Med Chem, 2017).
# Test system: HepG2
# Assay: Cytotoxicity against human HepG2 assessed as reduction in cell viability after 24 hrs by CellTiter-Glo luminescent assay
# Format: cell-based
# Conditions: hepg2, 24 h
smiles,measurement,value
CCN(CCO)CCO.Oc1c(Cl)c(Cl)c(Cl)c(Cl)c1Cl,CC50,127 µM
